Drawing on US20120308537A1, “Use Of Collagen Type VII For Maintaining And Re-Inducing Osteogenic Abilities Of Mesenchymal Stem Cells” (UNIVERSITY OF SOUTHERN CALIFORNIA, priority 2009, published 2012), this text covers ALP, ALP/Pro and Bone score for one molecule.

For assay [1], the system named is ectopic osteogenesis induction. Nature of the assay: ALP assay of ectopic osteogenesis induction, intramuscular implantation in rat. The format is in vivo. The note with it: 4 weeks. As to the method: (§1) High concentration of BMP-2 was used as positive control. The negative control was carrier only, which consisted of collagen sponge (bovine). The samples were administered to rat via intramuscular implantation on ectopic sites. The experiment lasted for 4 weeks. Two different preparations (C7 and C7′) were tested. The test dosages were: 10, 20 and 40 μg. The results were analyzed by alkaline phosphotase assay (ALP) and histology for bone formation.

Assay [2] has as its system ectopic osteogenesis induction. Put plainly: Histology analysis of ectopic osteogenesis induction (bone formation), intramuscular implantation in rat. The format is in vivo. As to conditions: 4 weeks. As to the method: as §1
Setting [3] is: 1 ug BMP-2 alone (0 ug C7), Rat A.
[4] abbreviates: 3 ug BMP-2 alone (0 ug C7′), Rat B, positive control.

B1: BMP-2: bone morphogenetic protein 2; high concentration used as positive control (protein, UniProt P12643 283-396, looked up)
Bone morphogenetic protein 2: QAKHKQRKRLKSSCKRHPLYVDFSDVGWNDWIVAPPGYHAFYCHGECPFPLADHLNSTNHAIVQTLVNSVNSKIPKACCVPTELSAISMLYLDENEKVVLKNYQDMVVEGCGCR
In the case of B1, the ALP worked out at 0.163 in assay [1] (setting [3]) and 0.476 in assay [1] (setting [4]). For the same molecule, the ALP/Pro in assay [1] (setting [3]) was found to be 0.877; in assay [1] (3 ug BMP-2 alone (0 ug C7′), Rat B), 3.571. Further, the Bone score in assay [2] (setting [3]) is 0; in assay [2] (setting [4]) it was 4.
